# Data from PubChem BioAssay AID2303 (GlaxoSmithKline (GSK), 2010).
# Only a part is listed here, and it is no random draw. Activity calls are given as the source filed them.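 Rule for the calls: active = inhibition above 50%; inactive = the rest.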
# Assay: human hepatoma cell viability loss – ATP luminescence, cytotoxicity control for P. falciparum antimalarial project, primary screen (AID 2303);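 note: 0% = DMSO wells and 100% = digitonin-killed cells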
# Conditions: HepG2 viability, 24-48 h, at 10 µM, stronger effect = higher value
row,Compound,inhibition
1,CCN1CCCC(OC(=O)C(O)(c2ccc3c(c2)OCO3)c2ccc3c(c2)OCO3)C1 (configuration not stated),inactive: 3%
2,CCN1CCCC1COC(=O)C(O)(c1ccc2c(c1)OCO2)c1ccc2c(c1)OCO2 (configuration not stated),inactive: 6%
